Experimental data: patent publication US5030629A, “Compositions and method comprising heterocyclic compounds containing two heteroatoms as membrane penetration enhancers” (priority 1989, dated 1991)

Assay: In vitro permeation of isosorbide dinitrate (ISDN) from creams through human stratum corneum
Details: control without enhancer

O=[N+]([O-])O[C@H]1CO[C@H]2[C@@H]1OC[C@H]2O[N+](=O)[O-]
Average Cumulative Amount of ISDN in Micrograms Permeating over 24 hours (0.7% ISDN cream, 24 hours (ISDN: 40% ISDN & 60% Lactose)): 442.5 ± 27.7 Micrograms
Average Cumulative Amount of ISDN in Micrograms Permeating over 48 Hours (0.7% ISDN cream, 48 hours): 535.0 ± 25.0 Micrograms
Average Cumulative Amount of ISDN in Micrograms Permeating over 51 Hours (1% ISDN cream, 51 hours): 678.5 ± 84.0 Micrograms
